Laboratory results from US20250051376A1, “BENZIMIDAZOLE DERIVATIVE COMPOUNDS AND USE THEREOF” (PHARMGEN SCIENCE, INC., priority 2021, published 2025).

Columns and labels:
[1] = tested on: gastric acid secretion; experiment: Gastric acid releasing suppression ability test by oral administration (pylorus-ligated, histamine-stimulated rats); type: in vivo; conditions: oral 3 mg/5 ml/kg in 0.5% methylcellulose, pylorus ligation 30 min after dosing, histamine s.c., gastric fluid collected 3 hours after surgery
Experimental: A week before the test, test animals (rats) were purchased and acclimatized. After acclimatization, food was removed the day before the test and fasting was performed for 24 hours using a fasting plate. The weight of each individual was measured, weight ranking was sequentially assigned to each group, and the average value of each group was randomly distributed so that the average value was evenly distributed. Test material (the embodiment compound and comparison compound) were used by dissolving them in 0.5% methylcellulose solution, and tegoprazan was used as a comparative compound. The prepared test material was orally administered to test animals at an amount of 3 mg/5 ml/kg, and 30 minutes later, inhalation anesthesia (3% isoflurane) was performed for 3 minutes using an inhalation anesthesia machine. After making a minimal incision in the upper abdomen about 1 cm below the left side of the sternum of an anesthetized test animal, the stomach was exposed, and the pyloric ring, which is the connection between the stomach and the duodenum, was ligated. The stomach and duodenum were restored to their original positions, and the laparotomy site was sutured well with surgical staplers. […] Efficacy was evaluated by calculating total acidity by combining the amount of gastric fluid and the amount of 0.01N NaOH required for titration.

[2] = Water solubility test (pH 6.8); conditions: 0.5M Tris-HCl pH 6.8; concentration when completely dissolved, by naked eye; highest concentration prepared 5.12 mg/ml

Cc1nc2c(O[C@H]3CCOc4cc(F)cc(F)c43)cc(C(=O)N(C)C)cc2n1P(=O)(OC(C)C)OC(C)C
gastric acid releasing suppression ability (% INH, Mean ± SD) [1]: 99.7 ± 0.2 % INH
Solubility, pH 6.8 [2]: 0.01 mg/ml
